Data published in BindingDB's records for doi:10.1021/jm991098z (Friedrich-Alexander University, 2000).

By UniProt entry, the sequences of proteins in these tests, tags left out.
UniProt P20288, whole entry: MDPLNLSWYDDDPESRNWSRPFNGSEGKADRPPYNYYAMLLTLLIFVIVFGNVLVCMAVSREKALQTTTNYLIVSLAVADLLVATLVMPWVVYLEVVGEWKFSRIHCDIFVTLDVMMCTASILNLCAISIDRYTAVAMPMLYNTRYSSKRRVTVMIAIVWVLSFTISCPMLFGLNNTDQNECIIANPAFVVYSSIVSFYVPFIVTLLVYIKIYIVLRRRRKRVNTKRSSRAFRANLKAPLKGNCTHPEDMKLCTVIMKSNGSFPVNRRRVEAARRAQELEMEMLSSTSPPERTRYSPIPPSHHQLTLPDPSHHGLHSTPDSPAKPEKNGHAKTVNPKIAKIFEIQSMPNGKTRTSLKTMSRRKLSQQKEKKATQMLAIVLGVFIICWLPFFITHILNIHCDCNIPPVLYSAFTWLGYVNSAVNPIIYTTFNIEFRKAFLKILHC

Target: D(2) dopamine receptor (Bos taurus, UniProt P20288)
Assay: Binding Affinity was tested on relative proportion of high Affinity Site of Bovine dopamine receptor D2. Tested for ability to displace the radioligand [3H]spiperone at the binding site.

RH: 40%
Compound: C#CC1=CCC(N(CCC)CCC)CC1 (stereo unspecified) [(4-Ethynyl-cyclohex-3-enyl)-dipropyl-amine]
